Values quoted from earlier work as cited in patent US20260034075A1, “CHOLINE CARBOXYLIC ACID BASED IONIC LIQUIDS AS ANTIMICROBIAL AGENTS” (University of Mississippi, priority 2022, published 2026).

Test system: E. coli
Details: individual reagents of the IL, compared with CADDA 1:1; cited from earlier work

CCCCCCCCCCCC(=O)O [lauric acid]
bactericidal activity (concentration) of individual reagent: around 1562.5 mM
